Mito fusion act: mitochondrial division inhibition or fusion activation; 320,000 tested, 0.23% active; S. cerevisiae fusion-defective mutant growth rescue, CellTiterGlo 48 h; Potency, µM (top dose mostly 46.1 µM), for the others: top-dose growth rescue (activation), actives largely listed as activators; AID 485298; also: potency is read from the fitted curve at half-maximal effect; % of control where 0% means no effect; nearly all actives have a fitted effect of over 45% in size
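Luminescent cell viability in 1536-well qHTS format served as the measure of rescued growth in ts fusion-mutant S. cerevisiae cultured on non-fermentable YPEG for 48 hours at 37C.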
A549 viability: kills or reduces viability of A549 cells in Nrf2 counter-screen. A549 ARE-Fluc cells, CellTiter-Fluor viability, 18-24 h. Potency, µM (doses to about 46 µM), for the others: at the highest dose activity change, negative = cytotoxicity, most hits filed as inhibitors. 390,000 tested, 0.16% active. AID 504648; also: potency is read from the fitted curve at half-maximal effect; % is scaled to controls: 0 for no effect and ±100 for the full control effect
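Cytotoxicity counterscreen: CellTiter-Fluor fluorescence was measured in A549 ARE_Fluc cells after 18-24 h of compound exposure in a concentration series. The subsequent BugLite luminescent read reports ARE-luciferase activity.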
Nrf2 block: blocks Nrf2 signaling | AID 504444 | 360,000 tested, 2.1% active | A549 ARE-Fluc reporter, luciferase luminescence, 18-24 h | Potency, µM (series often up to 46 µM), for inactives: top-dose activity change, negative = inhibition, most hits filed as inhibitors; also: potency is read from the fitted curve at half-maximal effect; % is scaled to controls: 0 for no effect and ±100 for the full control effect; nearly all actives have a fitted effect of over 60% in size
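Concentration-response testing used A549 ARE_Fluc cells at 5000 cells/well. Following an 18-24 h compound incubation, viability was read by fluorescence (Ex 405/Em 525) and luciferase output by luminescence.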
miR-21 reporter: miR-21 reporter, rising signal; Potency, µM (top dose mostly 38.3 µM), for the others: at the highest dose reporter change, positive = more light; 340,000 tested, under 10 active; HeLa miR-21 FLuc reporter, luciferase, 48 h; active = well fitted rising curve with a large enough effect; inconclusive = small, poorly fitted or top-dose-only effect; inactive = no such curve, though single readings can be large or run the other way;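 note: % of control where 0% means no effect; miR-21 action dims this reporter so a rising signal means less miR-21 action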
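Compounds were titrated across several concentrations (up to approximately 40 uM) and incubated 48 hours with HeLa miR-21-FLuc reporter cells (miR-21 target sequence downstream of FLuc, endogenous miR-21). Readout was firefly luciferase luminescence after lytic detection reagent.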
Nrf2 ARE act: activates Nrf2 signaling. AREc32 ARE-luciferase reporter (MCF7-derived line), luminescence, 24 h. Potency, µM (series often up to 46.1 µM), inactives show at the highest dose activation, actives largely listed as activators. 410,000 tested, 0.31% active. AID 624171; also: potency is read from the fitted curve at half-maximal effect; % of control where 0% means no effect; nearly all actives have a fitted effect of over 65% in size
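Luminescent ARE reporter assay in AREc32_Fluc cells: overnight plating at 37 deg C, 24 hr compound incubation, Steady-Glo added, 30 min RT before reading.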
Starred values were filed as active, the others as inactive; ? = inconclusive; . = no result given. Shown are actives, neighbours in structure and some others; about 2.3% of the full set was active somewhere. Unless noted, calls follow the shape of the dose curve; as a rule, active = well fitted curve in the direction sought with a large enough effect; inconclusive = small, poorly fitted or top-dose-only effect, or another doubt; inactive = no such curve, though single readings can be large; an effect the other way counts as inactive or inconclusive.

Values in the order: Nrf2 block, Nrf2 ARE act, A549 viability, miR-21 reporter, Mito fusion act
#1 CCC(=O)N1c2ccccc2CC1C(=O)NCCCN1CCN(c2cc(C)ccc2C)CC1 (stereo not drawn)
→ ., 1%, -29%, 11%, .
#2 COc1ccccc1NC(=O)C(=O)N/N=C/c1cccs1
→ ?, 11µM*, 8%, -53%, -2%
#3 COCCNC(=O)C(=O)N/N=C/c1cccs1
→ 9%, -1%, 10%, -6%, 2%
#4 CCOC(=O)c1cc(CC)sc1NC(=O)CN1CCN(C(=O)c2ccco2)CC1
→ 21µM*, 4%, ?, -7%, -2%
#5 O=C(O)c1ccccc1SC1=NS(=O)(=O)c2ccccc21
→ -3%, ., -1%, ., .
#6 Oc1ccc(Br)cc1C1C=C(c2ccc3c(c2)OCO3)NC(c2ccc(F)c(Br)c2)N1 (stereo not drawn)
→ ?, ., -17%, ., .
#7 C=C(c1ccccc1C)[n+]1ccccc1
→ 18µM*, 0%, -12%, 1%, 0%
#8 C=C(c1ccccc1Cl)[n+]1ccccc1
→ 7.3µM*, 0%, ?, 16%, -1%
#9 CCOC(=O)c1cnc2c(ccc3ccccc32)c1Nc1ccc(N(C)C)cc1
→ 11%, 6%, -16%, 2%, .

Whole records from above. Values in the order: Nrf2 block, Nrf2 ARE act, A549 viability, miR-21 reporter, Mito fusion act
Listed for COc1ccccc1NC(=O)C(=O)N/N=C/c1cccs1 : ?, 11µM*, 8%, -53%, -2%
Listed for C=C(c1ccccc1C)[n+]1ccccc1 : 18µM*, 0%, -12%, 1%, 0%

Taken from above.
#4 @ Nrf2 block = 21µM*
#2 @ Mito fusion act = -2%

Bioassay records as filed in PubChem BioAssay.
